Measured values: publication PMC12164071, “Lysine targeting covalent inhibitors of malarial kinase PfCLK3” (RSC Medicinal Chemistry, 2025)

Chains of the proteins cited; added tags and fusions are not shown.
UniProt P49760, whole entry: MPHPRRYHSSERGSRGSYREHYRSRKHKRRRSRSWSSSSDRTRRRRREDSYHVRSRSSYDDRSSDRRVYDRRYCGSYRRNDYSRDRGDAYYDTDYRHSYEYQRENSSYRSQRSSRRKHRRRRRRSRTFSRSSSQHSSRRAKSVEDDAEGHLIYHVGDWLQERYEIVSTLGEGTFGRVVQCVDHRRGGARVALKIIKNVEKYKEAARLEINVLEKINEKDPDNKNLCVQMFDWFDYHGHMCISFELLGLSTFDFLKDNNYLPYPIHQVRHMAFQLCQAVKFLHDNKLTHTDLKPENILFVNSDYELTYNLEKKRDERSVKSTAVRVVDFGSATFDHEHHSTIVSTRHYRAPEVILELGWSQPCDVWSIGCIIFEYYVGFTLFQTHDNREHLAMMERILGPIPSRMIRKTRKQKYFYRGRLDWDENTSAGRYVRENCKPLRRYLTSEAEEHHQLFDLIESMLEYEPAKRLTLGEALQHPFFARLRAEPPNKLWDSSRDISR

Target: human (h)CLK2 (Homo sapiens, UniProt P49760)
Test: Selectivity kinase assay against hCLK2
Details: errors SD, N ≥ 3

**Q.** What does the source list for CCN(CC)Cc1ccc(OC)c(-c2cnc3[nH]cc(-c4ccc(C(=O)O)c(C(C)C)c4)c3c2)c1?
**A.** pIC50 (hCLK2): 6.46 ± 0.15; IC50 (read-out: IC50 (hCLK2)): 344 nM
